Antibody variant affinities, Ab-14 heavy chain, assay B

Data: MIT Lincoln Laboratory AlphaSeq set, Li et al. 2023, doi:10.1038/s41467-023-39022-2, as distributed in FLAb.

Target: peptide PDVDLGDISGINAS, taken from heptad repeat 2 (HR2) of SARS-CoV-2 spike.

Parent scFv Ab-14: VH joined to VL by a 15-residue (Gly4Ser)3 linker. Changes lie in the heavy chain CDRs alone.
VH: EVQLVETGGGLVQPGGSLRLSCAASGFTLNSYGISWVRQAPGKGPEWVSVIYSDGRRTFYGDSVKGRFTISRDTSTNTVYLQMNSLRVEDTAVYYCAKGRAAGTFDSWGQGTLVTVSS
VL: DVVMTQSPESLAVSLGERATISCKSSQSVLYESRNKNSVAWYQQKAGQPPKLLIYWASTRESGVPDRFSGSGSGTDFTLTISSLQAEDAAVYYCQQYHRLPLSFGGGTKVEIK

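The parent was found by panning a naive human phage display library on the peptide. These sequences belong to a second round, designed from the earlier measurements on random variants of the parent. Group labels follow the data file (Ctrl: baseline library sampled from a position-specific scoring matrix, with some repeated check sequences; Rand: our label for a block that the file lists under HC and that is probably the random mutants of the ten best first-round binders; GP: Gaussian process model; GPLM: also part of the Gaussian process libraries; HC: hill climbing; Gen: genetic algorithm; Gibbs: Gibbs sampling; a sequence that several methods proposed may carry one label only). Affinity was read by AlphaSeq, a pooled yeast mating assay with surface-displayed partners. Pairs that bind mate more often; barcode pairs of the diploids are counted by sequencing. The ratio of observed to expected reads was calibrated, replicate by replicate, on BCL2-family standards whose Kd was known from biolayer interferometry. The assay was run in six technical replicates.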

Positions count from residue 1 of the parent VH; T28S puts S in place of T.
This list holds designs with at most six substitutions.
Kd is apparent (estimated from mating counts) and averaged on the log scale over replicates with a signal. Smaller is tighter.
"no signal" marks a missing value. The strain was present, yet no cells mated with the target were sequenced in any replicate, which points to weak or no binding.
Entries are sorted by rising average, undetected variants last.
The authors averaged sequences with at least three values out of six and counted those with two or fewer as poor binders.

Variant T28S/S63D/A101T [GPLM_Gen] gave 600 pM (6 of 6 replicates). For S31D/F59M/A101Y [GP_HC], the assay gave 680 pM (1 of 6 replicates). With T28S/R100V/A101V [GPLM_Gen] the result was 930 pM (6 of 6 replicates). For T28Q/S31E/G61A/S63Q [GP_Gibbs], the assay gave 1.2 nM (6 of 6 replicates). Variant T28G/G61S/A101E [GP_Gibbs] gave 1.9 nM (6 of 6 replicates). Variant T28D/G61A/S63D/R100E [GP_Gen] gave 2.0 nM (6 of 6 replicates).

For T28S/G61A/R100N/S107R [GPLM_Gen], the assay gave 2.1 nM (6 of 6 replicates). With G61D/R100Q/A101T/S107T [GP_HC] the result was 2.2 nM (6 of 6 replicates). For T28S/S107T [Ctrl], the assay gave 2.4 nM (5 of 6 replicates). Variant T28D/G61H/A101M [GP_Gen] gave 2.8 nM (6 of 6 replicates). Variant T28E/G61I/R100K/S107T [GP_Gen] showed 2.8 nM (4 of 6 replicates). For G26S/S53A/A101T [GPLM_Gen], the assay gave 4.9 nM (6 of 6 replicates).

With T28N/G61S/R100Q [GPLM_Gen] the result was 5.8 nM (6 of 6 replicates). Variant S31E/A101Q/S107G [GPLM_HC] gave 5.9 nM (6 of 6 replicates). For S31E/R56E/R100G [Ctrl], the assay gave 7.7 nM (6 of 6 replicates). With G26K/T28S/S53A [GP_Gen] the result was 10 nM (6 of 6 replicates). Variant T28S/S31E/S63R/A101T [GPLM_Gen] gave 10 nM (6 of 6 replicates). With R56V/G61I/A101I [GP_HC] the result was 10 nM (4 of 6 replicates).

For T28W/S31D/G61A/S107E [GP_HC], the assay gave 11 nM (1 of 6 replicates). Variant G26K/S31E/A101L [GP_HC] showed 14 nM (3 of 6 replicates). Variant S31E/A101E/S107N [GP_HC] showed 17 nM (1 of 6 replicates). For G99I/R100E [Ctrl], the assay gave 18 nM (1 of 6 replicates). With N30D/G61I/A101I [Ctrl+GP_HC] the result was 24 nM (7 of 12 replicates). For T28S/S31Q/K65F [Ctrl], the assay gave 24 nM (6 of 6 replicates).

Variant S31E/R56F/S107Q [GP_HC] showed 30 nM (4 of 6 replicates). For R56K/S63K/A101V/A102E [Ctrl], the assay gave 37 nM (4 of 6 replicates). Variant T28Q/G61S/R100V [GPLM_HC] showed 48 nM (6 of 6 replicates). For R56E/G61C/A101T [GP_HC], the assay gave 54 nM (5 of 6 replicates). Variant A101V/D106E [Ctrl] gave 66 nM (5 of 6 replicates). Variant A101Q/A102P [Ctrl] gave 290 nM (6 of 6 replicates).

With R56F/F59A/A102G [Ctrl] the result was 420 nM (6 of 6 replicates). Variant G61S/T104E/D106R [Ctrl] showed 420 nM (1 of 6 replicates). Variant N30L/G61Q/D106E [Ctrl] showed 450 nM (1 of 6 replicates). For G61Q/A101E/S107T [GPLM_Gen], the assay gave no signal (0 of 6 replicates). For S63Q/A101N/D106H [Ctrl], the assay gave no signal (0 of 6 replicates). Variant R56F/G61T/T104F/F105I [Ctrl] showed no signal (0 of 6 replicates).

Variant F59A/D62P [Ctrl] showed no signal (0 of 6 replicates). Variant G61Q/R100Q/A101N [GPLM_HC] gave no signal (0 of 6 replicates). With S31D/G61A/A101Q/D106I [GP_HC] the result was no signal (0 of 6 replicates). For T28P/L29V/G33S/G61A/T104D [Ctrl], the assay gave no signal (0 of 6 replicates). For R56K/D106R [Ctrl], the assay gave no signal (0 of 6 replicates). Variant L29I/R56Y/R100W/A101N/D106F [Ctrl] showed no signal (0 of 6 replicates).

With L29I/S31E/Y52G/G61W/G103V/S107Q [Rand] the result was no signal (0 of 6 replicates). Variant N30A/R100K/A102F [Ctrl] showed no signal (0 of 6 replicates). For R100Q/F105Y [Ctrl], the assay gave no signal (0 of 6 replicates). For S31A/Y60H/G61S/V64M/A102G/G103M [Rand], the assay gave no signal (0 of 6 replicates). Variant I51V/R56S/G61S/A102G [Rand] gave no signal (0 of 6 replicates). Variant S31E/G61T/A101P [Rand] showed no signal (0 of 6 replicates).

For reference, 5 entries of the list once more:

The variant T28D/G61H/A101M [GP_Gen] showed 2.8 nM (6 of 6 replicates).
The variant G61S/T104E/D106R [Ctrl] showed 420 nM (1 of 6 replicates).
The variant R100Q/F105Y [Ctrl] showed no signal (0 of 6 replicates).
The variant T28P/L29V/G33S/G61A/T104D [Ctrl] showed no signal (0 of 6 replicates).
The variant S31E/G61T/A101P [Rand] showed no signal (0 of 6 replicates).

Nonspecific signal, from three strains lacking the peptide, appeared in 1% of pairings of all heavy chain designs, centred on 120 nM (5% of these signals below 7.0 nM); values are not corrected for it.
Of ten entries with the parent sequence, four were seen in most replicates (averages 2.2 nM to 240 nM), three in one and three in none, so single entries are noisy.
Values of this round are not directly comparable with the first-round values of the same sequences.
Some sequences occur more than once in the pool; their replicates are pooled.